Measured values from patent US10080744B2, “Thiazoles as modulators of RORγt” (Janssen Pharmaceutica NV, priority 2014, dated 2018).
pIC50: −log10 of the molar value.

Tested on: IL-17 production by CD4 T cells
Assay: cells
Settings: Homo sapiens, 72 h, read-out: Human Th17 Assay, IC50
Protocol: The human Th17 assay tests the effect of RORγt modulatory compounds on IL-17 production by CD4 T cells under conditions which favor Th17 differentiation. Total CD4^+ T cells were isolated from the peripheral blood mononuclear cells (PBMC) of healthy donors using a CD4^+ T cell isolation kit II, following the manufacturer's instructions (Miltenyi Biotec). […] 50 μL of compound at titrated concentrations in DMSO were added into each well at final DMSO concentration at 0.2%. Cells were incubated for 1 hour, then 50 μL of Th17 cell differentiation medium was added to each well. […] Cells were cultured at 37° C. and 5% CO2 for 3 days. Supernatants were collected and the accumulated IL-17 in culture was measured by using MULTI-SPOT® Cytokine Plate following manufacture's instruction (Meso Scale Discovery). The plate was read using Sector Imager 6000, and IL-17 concentration was extrapolated from the standard curve. The IC50s were determined by GraphPad.

C[C@H](NS(=O)(=O)c1ccc(-c2sc(-c3nnc(CC(C)(C)C(=O)O)o3)nc2CC2CCC2)c2cnccc12)C(F)(F)F [Example 3/17, (S)-3-(5-(4-(Cyclobutylmethyl)-5-(5-(N-(1,1,1-trifluoropropan-2-yl)sulfamoyl)isoquinolin-8-yl)thiazol-2-yl)-1,3,4-oxadiazol-2-yl)-2,2-dimethylpropanoic Acid]
pIC50: 6.12
